In patent US20240018110A1, “RADIOLABELED COMPOUNDS TARGETING THE PROSTATE-SPECIFIC MEMBRANE ANTIGEN” (THE UNIVERSITY OF BRITISH COLUMBIA, priority 2020, published 2024) one finds Ki data, which are given here for one molecule.

By UniProt entry, the sequences of proteins in these tests, tags left out.
UniProt Q04609, whole entry: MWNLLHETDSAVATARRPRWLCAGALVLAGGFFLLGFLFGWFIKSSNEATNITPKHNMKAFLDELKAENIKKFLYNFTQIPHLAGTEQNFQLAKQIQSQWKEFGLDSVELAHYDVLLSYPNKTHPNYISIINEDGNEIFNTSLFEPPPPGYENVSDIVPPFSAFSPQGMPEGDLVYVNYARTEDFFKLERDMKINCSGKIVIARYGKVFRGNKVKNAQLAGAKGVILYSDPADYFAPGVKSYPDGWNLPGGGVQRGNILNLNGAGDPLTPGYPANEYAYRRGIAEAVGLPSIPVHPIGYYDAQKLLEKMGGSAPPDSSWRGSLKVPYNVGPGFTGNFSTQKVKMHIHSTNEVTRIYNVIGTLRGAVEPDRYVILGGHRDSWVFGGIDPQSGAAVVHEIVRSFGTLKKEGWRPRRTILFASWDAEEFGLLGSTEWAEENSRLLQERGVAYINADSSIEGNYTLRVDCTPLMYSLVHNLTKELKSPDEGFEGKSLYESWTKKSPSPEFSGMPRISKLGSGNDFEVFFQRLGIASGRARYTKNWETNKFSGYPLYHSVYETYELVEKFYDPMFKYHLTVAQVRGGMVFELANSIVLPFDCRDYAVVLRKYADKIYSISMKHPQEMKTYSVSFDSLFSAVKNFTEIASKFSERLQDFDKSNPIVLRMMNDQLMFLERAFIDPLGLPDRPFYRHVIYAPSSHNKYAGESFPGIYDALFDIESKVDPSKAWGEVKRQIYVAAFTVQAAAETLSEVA

For the assay, the target named is PSMA (Homo sapiens, UniProt Q04609). As to the kind of experiment: In vitro competitive binding assay.

In general, Ki refers to a dissociation constant, usually derived from enzyme kinetics or from competition with a known ligand. High values mean a looser hold on the target, low ones a stronger hold on the target. For `O=C(O)CCC[C@H](NC(=O)N[C@H](C(=O)O)C1CC1CCNC(=O)[C@H](Cc1c2ccccc2cc2ccccc12)NC(=O)[C@H]1CC[C@H](CNC(=O)CN2CCN(CC(=O)O)CCN(CC(=O)O)CCN(CC(=O)O)CC2)CC1)C(=O)O` (single isomer, unassigned) [PD-5-131], the inhibition constant Ki was greater than 1000 nM.
